How the values were obtained:
[1] = biological target: human histamine H4 receptor (Homo sapiens, UniProt Q9H3N8); experiment: Competition binding assay (3H-histamine) on recombinant human histamine H4 receptor; details: Table 4
[2] = tested on: mouse bone marrow-derived mast cells; experiment: Histamine-induced mast cell chemotaxis in vitro (transwell); assay type: cell-based; details: inhibition of mast cell chemotaxis

Protein sequences, listed by entry. Tags and fused reporters are not part of them.
UniProt Q9H3N8, whole entry: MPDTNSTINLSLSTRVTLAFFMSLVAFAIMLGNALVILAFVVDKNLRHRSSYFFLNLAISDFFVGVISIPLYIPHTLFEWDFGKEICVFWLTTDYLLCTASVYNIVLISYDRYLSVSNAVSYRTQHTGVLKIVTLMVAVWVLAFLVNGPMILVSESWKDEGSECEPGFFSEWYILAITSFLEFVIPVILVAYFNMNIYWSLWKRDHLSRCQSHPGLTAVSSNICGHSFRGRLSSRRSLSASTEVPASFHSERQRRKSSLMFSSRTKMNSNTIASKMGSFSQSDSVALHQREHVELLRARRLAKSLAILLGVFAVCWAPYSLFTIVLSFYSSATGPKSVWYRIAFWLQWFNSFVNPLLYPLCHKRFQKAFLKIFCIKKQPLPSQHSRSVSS

c1ccc2[nH]ccc2c1
Ki [1]: > 10 µM
% Inh 1 μM ([2]; compound 1 μM): 0%
% Inh 10 μM ([2]; compound 10 μM): 0%

Source: patent US20040127395A1 (priority 2002, published 2004)
